Assay results as given in ChEMBL document CHEMBL1126779, “Antagonism of 1-(2,5-dimethoxy-4-methylphenyl)-2-aminopropane stimulus with a newly identified 5-HT2- versus 5-HT1C-selective antagonist” (J Med Chem, 1993).

Chains of the proteins cited; added tags and fusions are not shown. Residues count along the entry.
UniProt P19327, whole entry: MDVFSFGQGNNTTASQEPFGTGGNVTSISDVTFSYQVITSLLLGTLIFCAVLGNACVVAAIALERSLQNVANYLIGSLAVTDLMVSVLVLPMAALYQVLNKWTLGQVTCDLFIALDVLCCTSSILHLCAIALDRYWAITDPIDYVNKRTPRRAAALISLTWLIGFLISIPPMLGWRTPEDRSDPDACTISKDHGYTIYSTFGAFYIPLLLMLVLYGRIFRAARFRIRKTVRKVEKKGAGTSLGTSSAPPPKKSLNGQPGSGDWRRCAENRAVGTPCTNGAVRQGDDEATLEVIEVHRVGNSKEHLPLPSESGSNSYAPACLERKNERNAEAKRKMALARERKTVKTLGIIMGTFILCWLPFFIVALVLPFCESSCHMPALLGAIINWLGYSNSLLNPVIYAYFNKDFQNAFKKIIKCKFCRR
UniProt P08909, 33-460 limits assumed: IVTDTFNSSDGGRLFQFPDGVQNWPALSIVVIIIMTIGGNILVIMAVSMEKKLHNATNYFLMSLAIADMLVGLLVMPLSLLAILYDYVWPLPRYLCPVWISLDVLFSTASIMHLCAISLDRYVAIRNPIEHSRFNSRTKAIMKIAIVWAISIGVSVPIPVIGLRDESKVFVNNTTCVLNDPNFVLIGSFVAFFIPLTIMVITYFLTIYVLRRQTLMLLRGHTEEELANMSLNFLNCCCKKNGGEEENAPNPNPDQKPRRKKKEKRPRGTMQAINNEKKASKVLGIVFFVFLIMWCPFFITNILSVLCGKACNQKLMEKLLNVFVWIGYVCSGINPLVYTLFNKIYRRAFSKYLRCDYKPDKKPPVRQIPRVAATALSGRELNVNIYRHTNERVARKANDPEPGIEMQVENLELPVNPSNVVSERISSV
UniProt P30994, whole entry: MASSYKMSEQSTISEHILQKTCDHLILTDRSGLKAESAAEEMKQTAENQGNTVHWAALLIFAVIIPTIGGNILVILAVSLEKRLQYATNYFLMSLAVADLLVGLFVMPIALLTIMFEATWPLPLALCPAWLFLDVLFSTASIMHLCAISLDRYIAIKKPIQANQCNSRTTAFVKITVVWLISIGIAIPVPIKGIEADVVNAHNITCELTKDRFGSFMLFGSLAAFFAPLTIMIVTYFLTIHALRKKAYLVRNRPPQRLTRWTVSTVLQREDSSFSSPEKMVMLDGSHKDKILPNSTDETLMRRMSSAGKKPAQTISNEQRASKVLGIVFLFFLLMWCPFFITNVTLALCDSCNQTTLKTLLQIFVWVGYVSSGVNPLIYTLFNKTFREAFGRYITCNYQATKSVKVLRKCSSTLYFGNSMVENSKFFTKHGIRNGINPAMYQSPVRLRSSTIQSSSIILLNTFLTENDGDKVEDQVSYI
UniProt P14842, whole entry: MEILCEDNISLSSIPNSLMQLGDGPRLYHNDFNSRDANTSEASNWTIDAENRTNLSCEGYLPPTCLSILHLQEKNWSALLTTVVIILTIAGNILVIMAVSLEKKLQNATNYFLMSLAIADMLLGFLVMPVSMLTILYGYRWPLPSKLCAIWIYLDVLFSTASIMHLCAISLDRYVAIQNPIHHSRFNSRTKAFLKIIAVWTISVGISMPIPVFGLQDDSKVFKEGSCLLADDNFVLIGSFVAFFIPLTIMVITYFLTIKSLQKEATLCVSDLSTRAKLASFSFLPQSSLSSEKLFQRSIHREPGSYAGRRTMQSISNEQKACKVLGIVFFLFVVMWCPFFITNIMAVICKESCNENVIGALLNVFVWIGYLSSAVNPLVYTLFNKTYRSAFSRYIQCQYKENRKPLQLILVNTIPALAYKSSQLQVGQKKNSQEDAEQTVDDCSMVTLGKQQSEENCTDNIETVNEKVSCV

Columns and labels:
[1] = molecular target: 5-hydroxytryptamine receptor 1A (Rattus norvegicus, UniProt P19327); test: Tested for binding affinity against 5-hydroxytryptamine 1A receptor from rat frontal cortical regions using [3H]8-OH-DPAT as radioligand
[2] = molecular target: 5-hydroxytryptamine receptor 2C (Rattus norvegicus, UniProt P08909); test: Tested for binding affinity against 5-hydroxytryptamine 1C receptor from rat frontal cortical regions using [3H]mesulergine as radioligand
[3] = molecular target: Serotonin 2 (5-HT2) receptor (Rattus norvegicus, UniProt P30994+P08909+P14842); test: Tested for binding affinity against 5-hydroxytryptamine 2 receptor from rat frontal cortical regions using [3H]ketanserin as radioligand

O=C(CCCN1CCC(Nc2ccccc2)CC1)c1ccc(F)cc1
Ki [1]: 250 nM | Ki [2]: 2300 nM | Ki [3]: 34 nM

This is a selection: effects in other tests are not listed, and their absence says nothing.
